Settings: rat, in vivo, iv, 5 mg/kg

Substance: Tacrolimus-Bonded Polyethylene Glycol-αβ-Polyaspartic Acid Block Copolymer [Comparative Example 1]
- C72 h: 0.361 ng/mL

— US10945997B2, “Polymer derivative of macrolide immunosuppressant” (Nippon Kayaku Kabushiki Kaisha, priority 2016, dated 2021)
